# Measured affinities in a library of Ab-14 heavy chain variants

All variants were tested on one target, the spike HR2 peptide PDVDLGDISGINAS (SARS-CoV-2).

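The variants were designed computationally from a first round of random CDR variants and then made and measured. Their group label is 14H_Rand (Rand: our label for a block that the file lists under HC and that is probably the random mutants of the ten best first-round binders). Affinity was read by AlphaSeq, a pooled yeast mating assay with surface-displayed partners. Binding brings cells together so that they mate, and sequencing counts the barcode pairs among the diploids. Each replicate has its own calibration line, from reference interactions of the BCL2 family. There are six technical replicates.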

Parent scFv Ab-14: VH joined to VL by a (GGGGS)3 linker. Changes lie in the heavy chain CDRs alone.
VH: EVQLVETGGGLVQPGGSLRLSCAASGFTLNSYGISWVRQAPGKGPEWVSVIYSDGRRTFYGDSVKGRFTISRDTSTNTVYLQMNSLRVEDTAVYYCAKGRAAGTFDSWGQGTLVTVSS
VL: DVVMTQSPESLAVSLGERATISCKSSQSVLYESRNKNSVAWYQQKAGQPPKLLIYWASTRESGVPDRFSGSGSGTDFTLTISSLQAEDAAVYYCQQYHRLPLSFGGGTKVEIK

Each variant is given by its three heavy chain CDRs, as the data file delimits them; those of the parent are GFTLNSYGIS, VIYSDGRRTFYGDSVK, GRAAGTFDS.
Values are log10 of the apparent Kd in nM; lower means stronger binding.
An entry "n.d." has no value in the source: the pair was not observed among the diploids in that replicate. This suggests poor binding but is not conclusive.
The authors' rule: three or more of the six replicates give a measured affinity, fewer mean a poor binder.
The range of this assay differs from that of the first round, and the authors advise against merging the two.
As a blank, each scFv also met three strains without target: over all heavy chain designs, 1% of these pairings were detected, typically at 2.08 and seldom below 0.84. For each scFv, signals with the empty controls are counted beside the result, with their mean in brackets.
Of ten entries with the parent sequence, four were seen in most replicates (averages 0.34 to 2.37), three in one and three in none, so single entries are noisy.

CDR-H1,CDR-H2,CDR-H3,log10 Kd (nM) by replicate,empty controls
GFDLNSYGES,VKYSDGRRTFYGDSVK,GRAAGWFWS,n.d. n.d. n.d. n.d. n.d. n.d.,0/18
GFTLNSYGIS,VIYADGRRTVYGDSVK,GRAAGTNKS,n.d. n.d. n.d. n.d. n.d. n.d.,0/18
GFTLNQYGIS,VIYSDGRRTFYSCSVK,NRAAGFFDS,n.d. n.d. n.d. n.d. n.d. n.d.,0/18
GFTLNEYGIG,VIYSDGRRTFYGDSVK,MRAAVTFDQ,n.d. n.d. n.d. n.d. n.d. n.d.,0/18
GFTLNDSGIS,VIYSDGRRTFYGDSVK,GRAALTFIS,n.d. n.d. n.d. n.d. n.d. n.d.,2/18 (2.37)
GKTLNQYGIS,VIYSDGRRTFYSDSVK,GRAAGFFDS,n.d. n.d. n.d. n.d. n.d. n.d.,0/18
GLTLNSYGIS,VIYSDGRRTFYSDSVK,GRAGGTFDS,n.d. 2.35 n.d. 1.96 n.d. 2.64,3/18 (1.75)
GFTLNEYGIS,VIYSDGRRTFYTDSVK,GRFAGTCDS,n.d. n.d. n.d. n.d. n.d. n.d.,0/18
GFTLNEYGIS,VIESDGRRTMYTDSVK,GRFAGTFDS,n.d. n.d. n.d. n.d. n.d. n.d.,0/18
GFHLNKYGIS,VIYSDGRRTFYGDSVK,GRAAGWFNS,n.d. n.d. n.d. n.d. n.d. n.d.,0/18
GCTLCEDGIS,VIYSDGRRTFYPDSVK,GRFAQTFDS,n.d. n.d. n.d. n.d. n.d. n.d.,0/18
GKTLDSYGIS,VIYSDGRRTFYGDSPK,GRAAGTALS,n.d. n.d. n.d. n.d. n.d. n.d.,1/18 (2.39)
GFTLDSMGIS,VIYSDGRRTFYGDRVK,GRAAGTALS,n.d. n.d. n.d. n.d. n.d. n.d.,0/18
GFDLNSYGIS,VIYSDGRMTFYISSVK,GRAAGWFNM,n.d. n.d. n.d. n.d. n.d. n.d.,0/18
GFTLMSYGIS,VIYSDGRNTFVDDSVK,GQLAGTFDS,n.d. n.d. n.d. n.d. n.d. n.d.,0/18
GFTLDSYGIS,VIYSDGRRTFYGDWVK,GRAAGTALS,n.d. n.d. n.d. n.d. n.d. n.d.,0/18
GFTLNEYGIS,VIYSDGRRAFYGDSVK,GRAAVTFDQ,2.23 n.d. n.d. 2.22 n.d. n.d.,0/18
GFTLNSVGIS,VIYSDGRRTFYSDSVK,GRAGGTFDS,n.d. n.d. n.d. n.d. n.d. n.d.,0/18
GFTGNDYGIS,VIYSDGRRTYYGDSVK,GRAALTFIS,n.d. n.d. n.d. n.d. n.d. n.d.,0/18
GFTLNSYGIS,VPYSDRRRTFYSDSVK,GRAGGTFDS,n.d. n.d. n.d. n.d. n.d. n.d.,0/18
GWTLNQYGIS,VIYPDGRRTFYADSVK,GRAAGFFDS,n.d. n.d. n.d. n.d. n.d. n.d.,0/18
GFTLGEYGIS,VIYSDGRRTFYTDSVK,GRFAGTFDS,0.35 1.49 1.29 0.17 0.52 0.47,0/18
GFALNQYGIS,VIYYDGRRTFYGCSVK,GRAAGFFDS,n.d. n.d. n.d. n.d. n.d. n.d.,0/18
GGTLNSYGIS,VIYNDGRRTFWGDSVK,GRAAGTNKS,n.d. n.d. n.d. n.d. n.d. n.d.,0/18
GLTANSYGIS,VIYADGRRTFYGDSVK,GRAAVTNKS,n.d. n.d. n.d. n.d. n.d. n.d.,1/18 (1.26)
GFTLNDYGIS,VIVSDGRRTFYGDSVK,GRAALTFIS,n.d. n.d. n.d. n.d. n.d. n.d.,0/18
GFTLNAYGIS,VIYADGRRTFYGDSVK,GRAAGTNKS,n.d. n.d. 1.67 n.d. n.d. n.d.,1/18 (2.84)
AFTLNIYGIS,VISSDGRRTQYIDSVK,GRAANTFDS,n.d. n.d. n.d. n.d. n.d. n.d.,0/18
GFDLNSYGIS,VIYSDGRRTFYGDSAK,GRAAGWFNS,n.d. n.d. n.d. n.d. n.d. n.d.,0/18
GFTLNQYGIS,VIYSDGNRTFYSDSVK,GRAAGNFDS,n.d. n.d. n.d. n.d. n.d. n.d.,0/18
CFTLNSYGIS,VIYSDGRRTFYDDVVK,YQLAGTFDS,n.d. n.d. n.d. n.d. n.d. n.d.,0/18
GFTDNDYGIS,VIYSDGRRTFYGDSVK,GSAALTQIS,n.d. n.d. n.d. n.d. n.d. n.d.,1/18 (1.33)

The opening 3 entries, copied out:

{"CDR-H1": "GFDLNSYGES", "CDR-H2": "VKYSDGRRTFYGDSVK", "CDR-H3": "GRAAGWFWS", "log10 Kd (nM) by replicate": "n.d. n.d. n.d. n.d. n.d. n.d.", "empty controls": "0/18"}
{"CDR-H1": "GFTLNSYGIS", "CDR-H2": "VIYADGRRTVYGDSVK", "CDR-H3": "GRAAGTNKS", "log10 Kd (nM) by replicate": "n.d. n.d. n.d. n.d. n.d. n.d.", "empty controls": "0/18"}
{"CDR-H1": "GFTLNQYGIS", "CDR-H2": "VIYSDGRRTFYSCSVK", "CDR-H3": "NRAAGFFDS", "log10 Kd (nM) by replicate": "n.d. n.d. n.d. n.d. n.d. n.d.", "empty controls": "0/18"}

From the AlphaSeq antibody data of Li et al. 2023 (doi:10.1038/s41467-023-39022-2), copy in the FLAb collection.